Measured values reported in PubChem BioAssay AID1531 (NMMLSC, 2009).
Only a part is listed here, and it is no random draw. Calls of active or inactive are those of the source. Rule as the data show it: active = binding response below about 67% or above about 130%; inconclusive = no clear call, values can overlap the other calls; inactive = in between.

target: Mitogen-activated protein kinase kinase kinase 2 (Homo sapiens) (UniProt Q9Y2U5); test: modulators of MEK5 binding to wildtype MEKK2, primary screen, biochemical, multiplex bead flow cytometry, Alexa488-MEK5 (AID 1531); conditions: Alexa488-MEK5 binding to MEKK2 WT, at 10 µM, actives lie on both sides

Row | SMILES | binding response (% of control)
1 | CC1(CBr)Cn2c(nc3ccccc3c2=O)S1 (stereo not given) | inactive: 110%
2 | O=[As](O)(c1ccccc1Br)c1ccccc1Br | inactive: 91%
3 | CC(C)/C=N\N=C(\N)N[N+](=O)[O-] | inactive: 99%
4 | CN(C(=O)Cc1ccc(Cl)c(Cl)c1)[C@@H]1CCCC[C@H]1N1CCCC1 | inactive: 86%
5 | CC(C)(C)C(=O)NC(Sc1ncccn1)C(Cl)(Cl)Cl (stereo not given) | inactive: 90%
6 | Clc1n[nH]nc1-c1nn[nH][15n]1 | inactive: 98%
7 | CN(CCCl)Cc1cc(Cl)c(NC2=NCCN2)c(Cl)c1 | active: 142%
8 | CCOP(=O)(Nc1ccc(C)cn1)OCC | inactive: 103%
9 | CCOP(=O)(NC(=NC(C)c1ccccc1)NC(C)c1ccccc1)OCC (stereo not given) | inactive: 100%
10 | O=P1(Nc2ccccn2)COc2ccccc2OC1 | inactive: 103%
11 | CCC1=CC2Cc3nc4ccc(Cl)cc4c(N)c3C(C1)C2 (stereo not given) | active: 181%
12 | O=P1(Nc2ccc(Br)cn2)COc2ccccc2OC1 | inactive: 106%
13 | O=[As](O)(c1cccs1)c1cccs1 | inactive: 108%
14 | Cc1ccc(OCC(=O)OC2CN3CCC2CC3)cc1 (stereo not given) | inactive: 99%
15 | Nc1cccc([As](=O)(O)c2ccccc2)c1 | inactive: 76%
16 | O=P1(Nc2ncccn2)COc2ccccc2OC1 | inactive: 90%
17 | O=C(/C=C/c1ccccc1)OC1CN2CCC1CC2 (stereo not given) | inactive: 106%
18 | CN(C)C1(CNC(=O)c2ccc(S(C)(=O)=O)cc2)CCCCC1 | inactive: 83%
19 | CC1CCC(C(C)C)C(OP(=O)(Nc2ccccn2)c2ccccc2)C1 (stereo not given) | inactive: 95%
20 | Cc1ccc(C(=O)OC2CN3CCC2CC3)cc1 (stereo not given) | inactive: 102%
21 | CN(C(=O)Cc1ccc(Cl)c(Cl)c1)[C@H]1CC[C@@]2(CCCO2)C[C@@H]1N1CCCC1 | inactive: 101%
22 | O=[N+]([O-])c1ccc2c(c1)nnn2O | inactive: 109%
23 | CN(C(=O)Cc1ccccc1)[C@@H]1CC[C@]2(CCCO2)C[C@H]1N1CCCC1 | inactive: 107%
24 | CCOP1(=S)c2c(C)nn(CCC#N)c2N=C(c2ccc(F)cc2)N1C (stereo not given) | inactive: 102%
25 | NC(=O)Nc1ccc([As](=O)(O)O)cc1 | inactive: 103%
26 | Nc1ccccc1[As](=O)(O)c1ccccc1 | inactive: 86%
27 | O=C(O)COc1ccc([As](=O)(O)O)cc1[N+](=O)[O-] | inactive: 99%
28 | CS(=O)(=O)c1cc([N+](=O)[O-])c2no[n+]([O-])c2c1 | inactive: 88%
29 | O=P(Nc1nccs1)(c1ccccc1)c1nc2ccccc2s1 (stereo not given) | inactive: 101%
30 | O=P(Nc1nccs1)(Oc1ccccc1)Oc1ccccc1 | inactive: 110%
